# In PubChem BioAssay AID1010 (Sanford-Burnham Center for Chemical Genomics, 2008):
# The entries are a selection whose mix differs from that of the whole data set. Some results for these compounds are left out of this collection, so the calls shown say nothing about other tests. Calls of active or inactive are those of the source.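 The calls were made as follows: active = survival measured by cellular ATP above 50% at 15 µg/ml in the first screen; inactive = the rest.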
# Test: protection against thapsigargin ER stress killing – CSM14.1 cells, ATP luminescence, primary screen (AID 1010);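 also: cell death triggered by about 15 µM thapsigargin; ATP read 24 h after thapsigargin was added; plate controls were thapsigargin with DMSO for no effect and DMSO without thapsigargin for full effect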
# Settings: CSM14.1 thapsigargin ER stress survival, active compounds read high, screened at 15 µg/mL (by protocol)
row,SMILES,relative survival (cellular ATP)
1,COc1ccc(OC)c(C=C(C#N)C#N)c1,inactive: 4.8%
